# Measured affinities in a library of Ab-14 heavy chain variants

From the AlphaSeq antibody data of Li et al. 2023 (doi:10.1038/s41467-023-39022-2), copy in the FLAb collection.

Antigen: PDVDLGDISGINAS, a 14-residue peptide of the SARS-CoV-2 spike HR2 region.

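The parent was found by panning a naive human phage display library on the peptide. The variants were designed computationally from a first round of random CDR variants and then made and measured. Several design methods are mixed in this list. The assay is AlphaSeq: two haploid yeast populations carry antibody and antigen on their surface. Pairs that bind mate more often; barcode pairs of the diploids are counted by sequencing. Read counts were normalised to the haploid input and turned into Kd by a linear fit to BCL2-family pairs of known affinity, for each replicate. The assay was run in six technical replicates.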

The variants keep the light chain, the linker and the frameworks of Ab-14 (scFv order VH, three GGGGS repeats, VL).
VH: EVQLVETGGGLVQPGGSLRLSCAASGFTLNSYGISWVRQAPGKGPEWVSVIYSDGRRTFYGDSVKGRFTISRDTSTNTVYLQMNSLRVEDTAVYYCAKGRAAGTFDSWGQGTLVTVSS
VL: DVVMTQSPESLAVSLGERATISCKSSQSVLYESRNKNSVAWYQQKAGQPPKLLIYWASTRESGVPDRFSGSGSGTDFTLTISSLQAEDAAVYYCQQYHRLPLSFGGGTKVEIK

The parent's heavy chain CDRs are GFTLNSYGIS, VIYSDGRRTFYGDSVK, GRAAGTFDS; each variant's own CDRs replace them letter for letter. Variants here have more than six changes. Values are log10 of the apparent Kd in nM; lower means stronger binding. A pair that was not seen in that replicate is written "n.d."; this usually means weak binding, but a binder can also be missed. Values of this round are not directly comparable with the first-round values of the same sequences. As a blank, each scFv also met three strains without target: over all heavy chain designs, 1% of these pairings were detected, typically at 2.08 and seldom below 0.84. Also given: how often the same scFv was detected with the empty control strains, with their mean in brackets. In the paper, a design with two or fewer of six values counts as a poor binder.

CDR-H1	CDR-H2	CDR-H3	log10 Kd (nM) by replicate	empty controls
GFDLNEYGIS	VIYADGRRTAYADSVK	GNVAGTFDS	0.02 -0.56 -0.48 -0.29 -0.38 -0.05	1 of 18 (1.09)
GESLDQYGIS	VIYADGVRTSYTNSVK	GVHAGTFMQ	n.d. n.d. n.d. n.d. n.d. n.d.	0 of 18
GFDLDEYGIS	VIYADGMRTAYADDVK	GQNAGTFDL	-0.19 -0.18 -0.70 -0.72 -0.44 -0.49	1 of 18 (0.97)
GFNLEEYGIS	VIYADGFRAAYQQKVK	GQDGLVGMD	n.d. n.d. n.d. n.d. n.d. n.d.	0 of 18
GFDLNEYGIS	VIYADGSRTAYVDSVK	GNVAGTFDT	0.07 0.05 -0.50 -0.06 -0.36 -0.17	0 of 18
GFQLDEYGIS	VIYADGRRTFYQDSVK	GEVAGTFDK	-0.19 -0.36 -0.48 -0.48 -0.40 -0.22	0 of 18
GFDLNEYGIS	VIYADGMRTFYADDVK	GNNAGTFDQ	1.11 0.72 0.24 0.10 0.68 0.66	0 of 18
GVDLDEYGIS	VIYADGHRRFYADDVK	GNDIGGFDL	n.d. n.d. n.d. n.d. 1.48 n.d.	0 of 18
GFDLNEYGIS	VIYADGLRTFYTDSVK	GEAAGTFDV	-0.20 -0.34 -0.06 -0.25 -0.19 -0.04	0 of 18
GFDLNEYGIS	VIYADGVRTAYTDSVK	GNTAGTFDV	1.06 0.33 0.90 0.24 -0.10 0.23	0 of 18
GFDLNEYGIS	VIYADGQRTFYADSVK	GEHAGTFDI	-0.58 -0.64 -0.78 -1.02 -0.55 -0.76	0 of 18
GYDLQDYGIS	VIYADGRRTAFSHSVK	GQIAGTFNF	-0.08 0.59 0.68 0.28 0.14 0.19	0 of 18
GFDLNEYGIS	VIYADGVRTAYADDVK	GEVAGTFDI	-0.09 -0.01 -0.14 -0.02 -0.44 0.21	0 of 18
GFDLEDYGIS	VIYADGMRTAYADSVK	GEAAGTFDL	-0.16 -0.12 0.35 0.47 -0.67 -0.37	0 of 18
GFDLDEYGIS	VIYADGMRTAYADKVK	GNVAGTFDT	0.52 0.32 -0.14 -0.02 0.56 0.48	1 of 18 (2.91)
GFDLNEYGIS	VIYADGKRTAYSDSVK	GEVAGTFDV	-0.61 -0.87 -0.80 -1.12 -1.09 -0.73	1 of 18 (2.03)
GFDVNEYGIS	VIYADGRRTQYTQDVK	GKNNMVLYV	0.15 1.01 0.10 -0.06 0.18 0.24	1 of 18 (1.82)
GFDLNEYGIS	VIYADGRRTAYTDSVK	GHTAGTFKL	0.27 0.45 1.03 0.88 0.61 0.21	0 of 18
GFDLDEYGIS	VIYADGKRTFYADSVK	GENAGTFDA	0.72 0.61 0.52 -0.08 0.36 0.64	0 of 18
GFDLNEYGIS	VIYADGKRTAYSDSVK	GGNAGTFDM	0.53 0.01 -0.29 -0.29 -0.43 -0.17	0 of 18
GFDLNEYGIS	VIYADGKRTAYSDSVK	GNAGGTFDS	-0.36 0.21 0.20 -0.25 -0.06 0.00	0 of 18
GFDLNEYGIS	VIYADGMRTAYADDVK	GNTAGTFDV	-0.55 0.16 -0.93 -1.16 -0.76 -0.56	0 of 18
GFDLEDYGIS	VIYADGRRTFYADKVK	GENAGTFDI	0.05 -0.26 0.14 -0.42 0.10 0.12	0 of 18
GYDIQDYGIS	VIYADGVRVAYHDSVK	GQMAGFFLL	n.d. n.d. n.d. n.d. n.d. n.d.	0 of 18
GKDLDEYGIS	VIYADGRRTFYLNTVK	GEDGFDLNQ	n.d. n.d. 2.01 n.d. n.d. n.d.	0 of 18
GFNLDEYGIS	VIYADGTRTSYQPNVK	GVTGGHDVT	n.d. n.d. n.d. n.d. n.d. n.d.	1 of 18 (2.28)
GESLNEYGIS	VIYADGVRSGYTDQVK	GVNTGAVLD	n.d. n.d. n.d. n.d. n.d. n.d.	1 of 18 (1.28)
GFDLNEYGIS	VIYADGMRSALINSVK	GTLSGTFIA	n.d. n.d. n.d. n.d. n.d. n.d.	0 of 18
GNDLEEYGIS	VIYADGMRTAAVDSVK	GDNSGTVVV	n.d. n.d. n.d. n.d. n.d. n.d.	0 of 18
GFWLDEYGIS	VIYADGMRTAYKNSVK	GSFTYVMFV	n.d. n.d. n.d. n.d. n.d. n.d.	0 of 18
GFDLDEYGIS	VIYADGMRTAYADDVK	GQVAGTFDV	-0.60 -0.95 -0.60 -0.81 -0.57 -0.67	0 of 18
GQDLMEYGIS	VIYADGTRTMYTDDVK	GEFGDQGKT	n.d. n.d. n.d. n.d. n.d. n.d.	0 of 18
GFDLNEYGIS	VIYADGSRKAYADDVK	GNVAGTFDV	0.12 -0.56 -0.58 -0.58 -0.64 -0.29	0 of 18
GFDLDEYGIS	VIYADGMRTAYADSVK	GNVAGTFDI	-0.40 -0.43 -0.35 -0.53 -0.52 -0.20	0 of 18
GFSIDEYGIS	VIYADGARASYAPKVK	GQYAGDLIE	n.d. n.d. 2.65 2.58 n.d. n.d.	0 of 18
GKDLNEQGIS	VIYADGTRTAAANTVK	GEIAGTFKV	n.d. n.d. n.d. n.d. n.d. n.d.	0 of 18
GFNLDEYGIS	VIYADGRRTFYSDNVK	GENGGTFDI	0.47 0.53 1.15 0.54 0.71 0.71	0 of 18
GFDLNEYGIS	VIYADGSRTFYADSVK	GEEAGTFDQ	0.63 -0.33 0.25 0.26 -0.41 -0.03	0 of 18
GFDLNEYGIS	VIYADGQRTFYTDSVK	GEHAGTFDV	-0.11 -0.36 -0.61 -0.68 -0.58 -0.53	0 of 18
GFDLEEYGIS	VIYADGSRTAYADSVK	GENAGTFDV	-0.54 0.14 1.17 0.32 -0.18 -0.16	0 of 18
GFDINEYGIS	VIYADGRRTAYADSVK	GNAAGTFDS	0.71 0.83 -0.17 -0.35 -0.07 -0.17	0 of 18
GFDINEYGIS	VIYADGRRTFYADSVK	GNTAGTFDS	-0.41 -0.63 -0.64 -0.69 -0.79 -0.17	0 of 18

The opening 3 entries, copied out:

{"CDR-H1": "GFDLNEYGIS", "CDR-H2": "VIYADGRRTAYADSVK", "CDR-H3": "GNVAGTFDS", "log10 Kd (nM) by replicate": "0.02 -0.56 -0.48 -0.29 -0.38 -0.05", "empty controls": "1 of 18 (1.09)"}
{"CDR-H1": "GESLDQYGIS", "CDR-H2": "VIYADGVRTSYTNSVK", "CDR-H3": "GVHAGTFMQ", "log10 Kd (nM) by replicate": "n.d. n.d. n.d. n.d. n.d. n.d.", "empty controls": "0 of 18"}
{"CDR-H1": "GFDLDEYGIS", "CDR-H2": "VIYADGMRTAYADDVK", "CDR-H3": "GQNAGTFDL", "log10 Kd (nM) by replicate": "-0.19 -0.18 -0.70 -0.72 -0.44 -0.49", "empty controls": "1 of 18 (0.97)"}